scFv variants of Ab-14 (heavy chain) against a SARS-CoV-2 spike peptide

The measurements come from Li et al. 2023 (doi:10.1038/s41467-023-39022-2) through the FLAb antibody collection.

Antigen: PDVDLGDISGINAS, a 14-residue peptide of the SARS-CoV-2 spike HR2 region.

Each scFv is VH, a 15-residue (Gly4Ser)3 linker, VL, as in the parent Ab-14, and differs from it in the CDRs of the heavy chain only.
VH: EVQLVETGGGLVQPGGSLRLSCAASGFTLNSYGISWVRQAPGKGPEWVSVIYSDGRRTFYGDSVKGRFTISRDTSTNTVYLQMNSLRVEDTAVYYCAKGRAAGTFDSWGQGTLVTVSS
VL: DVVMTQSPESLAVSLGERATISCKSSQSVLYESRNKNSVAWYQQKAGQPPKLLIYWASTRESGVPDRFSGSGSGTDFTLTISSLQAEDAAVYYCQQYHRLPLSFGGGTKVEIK

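The starting antibody came from a phage panning campaign against this peptide. This is the validation round: designs drawn from the data on random variants, tested in the same kind of assay. Several design methods are mixed in this list. Affinity was read by AlphaSeq, a pooled yeast mating assay with surface-displayed partners. The frequency of each diploid, read from paired DNA barcodes, reflects how well the two displayed proteins bind. Scores were corrected for input abundance and mapped to Kd with protein pairs of known affinity run in the same pool. There are six technical replicates.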

Each variant is given by its three heavy chain CDRs, as the data file delimits them; those of the parent are GFTLNSYGIS, VIYSDGRRTFYGDSVK, GRAAGTFDS. Kd is apparent (estimated from mating counts) and averaged on the log scale over replicates with a signal. Smaller is tighter. A pair that was not seen in any replicate is written "not detected"; this usually means weak binding, but a binder can also be missed. A sequence measured in both rounds can read differently, since the two assays cover different ranges. Empty control strains, which show no peptide, gave a signal in 1% of pairings with all heavy chain designs; the median was 120 nM and 95% of these signals were weaker than 7.0 nM. No background was subtracted. The control count says in how many pairings with the empty strains this scFv gave a signal. The authors' rule: three or more of the six replicates give a measured affinity, fewer mean a poor binder.

Kd,seen in,empty controls,CDR-H1,CDR-H2,CDR-H3
12 nM,3 of 6,0 of 18,GFDVDKYGIS,VIYADGRRKFYQNQFK,GGQAGTFVI
340 pM,6 of 6,0 of 18,GFDLNEYGIS,VIYADGKRTAYADDVK,GGNAGTFDI
7.3 nM,6 of 6,0 of 18,GFDLNDYGIS,VIYSDGRRTFYGDAVK,GRIAGTFDI
170 pM,6 of 6,0 of 18,GFDLNEYGIS,VIYADGMRTAYSDSVK,GGNAGTFDM
not detected,0 of 6,0 of 18,GKDLNEQGIS,VIYADGTRTAYANTVK,GEIAGTFPL
130 nM,1 of 6,0 of 18,GFTLNDYGIS,VIYSDGRRTQYIDSVK,GRCAGTFNS
not detected,0 of 6,0 of 18,GADIEEYGIS,VIYADGVRKYYVNSFK,GQMAGTFTG
not detected,0 of 6,0 of 18,GFDLNSYGIS,VIYSDGRRTFYGDSVK,GRAAGHFMS
1.7 nM,6 of 6,0 of 18,GFDLNEYGIS,VIYADGKRTAYADSVK,GGNAGTFDI
25 nM,6 of 6,1 of 18,GFEMNSYGIS,VIYSDGRRTAYGDSVK,GRAAGTFDS
2.3 nM,6 of 6,0 of 18,GFDLDEYGIS,VIYADGQRTAYADSVK,GEVAGTFDV
not detected,0 of 6,0 of 18,GFTLNEYGIS,VIYSDGRRTFYQDSVK,GRIAITFDS
36 nM,4 of 6,1 of 18,GFTLNSYGIS,VIYSDGERTFYIDSVK,GRAAGTFDS
not detected,0 of 6,0 of 18,GFRLNSYGIS,VIYSDGRRTFYGDSVK,GRAALTFDS
not detected,0 of 6,0 of 18,GFTLNSYGIS,VIYSDGRRTFYGDSVK,HRAAGTFDS
300 nM,1 of 6,0 of 18,GFTLNSYGIS,VIYSDGRRTFYSDSVK,GRAGMTFDS
2.3 nM,6 of 6,0 of 18,GFELNSYGIS,VIYSDGRRTFYGDSVK,GQVAGTFDT
not detected,0 of 6,1 of 18,GFNLNSYGIS,VIYSDGRRTFYGDSVK,GAAQGTFDS
110 nM,2 of 6,0 of 18,GFWLNDYGIS,VIYSDGRRTFYADSVK,GRAAGTFDS
not detected,0 of 6,1 of 18,GFDINEYGVS,VIYADGMRTYYDDKVK,GSNGSMLLD
550 pM,6 of 6,0 of 18,GFDLNEYGIS,VIYADGRRTAYADSVK,GEAAGTFDD
5.2 nM,6 of 6,0 of 18,GFSLNEYGIS,VIYSDGRRTFYMDSVK,GRAAGTFDS
460 pM,6 of 6,0 of 18,GFDLNEYGIS,VIYADGRRTFYSDSVK,GEIAGTFDM
4.4 nM,6 of 6,0 of 18,GFTLNMYGIS,VIYSDGRRTYYGDSVK,GRAAGTFDS
20 nM,6 of 6,0 of 18,GFDLNSYGIS,VIYSDGRRTFYGDSVK,GRIAGTFNS
not detected,0 of 6,0 of 18,GFNLNDYGIS,VIYADGHRRYYVDNVK,GHLAGTFFM
not detected,0 of 6,0 of 18,GFTLNSYGRS,VIYSDGRRTFYGDSVK,GKAAATFDG
not detected,0 of 6,0 of 18,GWNLDEYGIS,VIYADGQRTFYVNAVK,GSNGSGITV
not detected,0 of 6,0 of 18,EFDLMEYGIS,VIYADGHRTFYAEHVK,GTNSGVFDT
4.0 nM,6 of 6,0 of 18,GFSLNSYGIS,VIYSDGRRTFYRDSVK,GRTAGTFDS
5.3 nM,6 of 6,0 of 18,GFNLNEYGIS,VIYADGRRTAYADSVK,GGAAGTFDV
29 nM,1 of 6,0 of 18,GYTLNEYGIS,VIYSDGRRTFYGDSVK,GRNAGTFDT
5.0 nM,6 of 6,0 of 18,GFTLNSYGIS,VIYSDGRRTFYSDSVK,GSVGGTFDS
1.7 nM,6 of 6,0 of 18,GFSLNEYGIS,VIYSDGRRTFYMDSVK,GRTAGTFDA
120 nM,1 of 6,2 of 18,SFSLNSYGIS,VIYSDGRRTFYGDSVK,GQAAGTFDS
not detected,0 of 6,0 of 18,GFTLNEYSIS,VIYEDGRRTFYTDSVK,GRFAGTFDS
not detected,0 of 6,0 of 18,GFTLNEAGIS,VIYSDGRRTIYGDSVK,GRAIGTFDS
190 nM,6 of 6,0 of 18,GFTLNDYGIS,VIYSDGRRTFYADSVK,GRVAGTFWS
9.1 nM,6 of 6,0 of 18,GFGLNSYGIS,VIYSDGRRTFYGDSVK,GREAGTFDS
7.5 nM,1 of 6,0 of 18,GFQLNSYGIS,VIYSDGRRTFYGDSVR,GAAAGTFDS
88 nM,4 of 6,0 of 18,GFSLNSYGIS,VIYSDGRRTFYQDRVK,GQAAGTFDS
1.5 nM,6 of 6,3 of 18,GFSLNDYGIS,VIYSDGRRTFYADSVK,GRTAGTFDS
19 nM,6 of 6,0 of 18,GFDLEDYGIS,VIYADGRRTFYSDSVK,GEIAGTFDK
not detected,0 of 6,0 of 18,GFTLNSYGIS,VIYADGRRTFYGDSVK,GRTAGTFKI
1.2 nM,6 of 6,0 of 18,GFDLNEYGIS,VIYADGMRKAYADDVK,GNVAGTFDL
210 pM,6 of 6,0 of 18,GFDLNEYGIS,VIYADGKRKFYADSVK,GENAGTFDV
not detected,0 of 6,0 of 18,GFDIDEYGIS,VIYADGFREAYAESVK,GLIQTGITV
not detected,0 of 6,0 of 18,GFTLNSYGIS,VIYSDGVRTFYGDNVA,GDAAGMFDS
2.0 nM,6 of 6,1 of 18,GFQLNEYGIS,VIYSDGRRTFYGDQVK,GKTAGTFDS
not detected,0 of 6,0 of 18,GFTLNEYGIS,VIYSDGRRTFYTDSVK,GRAAGTGDS
not detected,0 of 6,0 of 18,GFDLNEYGIS,VIYADGMRQAVVQNVK,GKINVFDSV
80 nM,1 of 6,0 of 18,GFTMNSYGIS,VIYSDGRRTFYGDDVK,GKAAGTFDS

From the list, the first 3 with no signal in any replicate:

CDR-H1	CDR-H2	CDR-H3	Kd	seen in	empty controls
GKDLNEQGIS	VIYADGTRTAYANTVK	GEIAGTFPL	not detected	0 of 6	0 of 18
GADIEEYGIS	VIYADGVRKYYVNSFK	GQMAGTFTG	not detected	0 of 6	0 of 18
GFDLNSYGIS	VIYSDGRRTFYGDSVK	GRAAGHFMS	not detected	0 of 6	0 of 18